Tests used:
Cannabinoid receptor 1 = Cannabinoid receptor 1 (Homo sapiens, UniProt P21554); assay: biochemical
Cannabinoid receptor 2 = Cannabinoid receptor 2 (Homo sapiens, UniProt P34972); assay: Displacement of [3H]-CP55940 from human CB2 receptor transfected in HEK293EBNA cell membranes after 90 mins by liquid scintillation counting analysis; design: species or system HEK293-EBNA
Procedure, shortened: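 Human CB2-transfected HEK293EBNA membranes (about 0.18 mg/mL protein) in Tris-HCl with EDTA, MgCl₂ and fatty-acid-free BSA, pH 7.4. Compounds were pre-screened at a single concentration, with full curves only if displacement exceeded 50%. Ki from iterative curve fitting, three independent experiments in triplicate.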

Sequences of proteins named here, by UniProt entry; tags and fusion partners are left off.
UniProt P21554, whole entry: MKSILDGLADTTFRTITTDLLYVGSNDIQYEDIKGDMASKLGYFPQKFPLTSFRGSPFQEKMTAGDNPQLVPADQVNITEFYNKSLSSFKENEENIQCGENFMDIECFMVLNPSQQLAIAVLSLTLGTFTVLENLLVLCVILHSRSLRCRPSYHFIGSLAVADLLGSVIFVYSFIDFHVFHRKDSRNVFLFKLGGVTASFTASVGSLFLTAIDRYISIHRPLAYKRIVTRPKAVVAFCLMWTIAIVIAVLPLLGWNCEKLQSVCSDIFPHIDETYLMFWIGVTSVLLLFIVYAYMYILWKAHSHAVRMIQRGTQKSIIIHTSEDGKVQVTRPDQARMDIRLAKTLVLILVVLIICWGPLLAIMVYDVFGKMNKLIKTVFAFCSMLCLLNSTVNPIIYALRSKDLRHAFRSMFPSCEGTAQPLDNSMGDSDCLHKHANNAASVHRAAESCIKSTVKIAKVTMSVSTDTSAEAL
UniProt P34972, whole entry: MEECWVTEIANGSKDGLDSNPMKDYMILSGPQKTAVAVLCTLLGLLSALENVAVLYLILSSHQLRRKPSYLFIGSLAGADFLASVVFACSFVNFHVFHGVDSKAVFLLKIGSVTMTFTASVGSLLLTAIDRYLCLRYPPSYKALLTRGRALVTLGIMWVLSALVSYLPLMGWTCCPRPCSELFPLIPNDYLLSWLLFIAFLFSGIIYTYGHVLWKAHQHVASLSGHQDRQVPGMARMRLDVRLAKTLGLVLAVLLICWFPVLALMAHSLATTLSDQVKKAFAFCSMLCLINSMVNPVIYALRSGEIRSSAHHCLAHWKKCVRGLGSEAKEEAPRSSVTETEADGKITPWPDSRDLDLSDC

Compound	Ki (Cannabinoid receptor 1) [µM]	Ki (Cannabinoid receptor 2) [µM]
Cc1ccc(Cn2nc(C(=O)N[C@@H]3C(C)(C)[C@@H]4CC[C@@]3(C)C4)cc2-c2ccc(Cl)c(C)c2)cc1	0.4	–
CCCCCCC(C)(C)c1cc(OC)c([C@@H]2C=C(CO)[C@@H]3C[C@H]2C3(C)C)c(OC)c1 [ONTERNABEZ]	–	0.0112
